Molecules are shown by their SMILES. pIC50: −log10 of the molar value. Where only a bound is given, the exact number is not on record here.

By UniProt entry, the sequences of proteins in these tests, tags left out.
UniProt P51681, whole entry: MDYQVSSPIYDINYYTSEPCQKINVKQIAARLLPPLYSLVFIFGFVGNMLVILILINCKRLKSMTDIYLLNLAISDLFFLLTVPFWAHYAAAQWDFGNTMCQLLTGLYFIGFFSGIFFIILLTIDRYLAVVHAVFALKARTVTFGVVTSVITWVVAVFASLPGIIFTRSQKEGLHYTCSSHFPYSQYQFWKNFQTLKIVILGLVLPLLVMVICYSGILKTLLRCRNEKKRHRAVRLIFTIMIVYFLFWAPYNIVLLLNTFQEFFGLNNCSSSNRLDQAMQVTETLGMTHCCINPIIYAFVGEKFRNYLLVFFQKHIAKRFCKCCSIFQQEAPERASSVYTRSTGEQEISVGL

For this assay, the target named is T1, CCR5 (Homo sapiens, UniProt P51681).
T1 construct: expressed in transfected cells; host or cells: L1.2
As to the kind of experiment: L1.2-CCR5 Chemotaxis. In kind it is cell-based. To be noted: read-out: Potency (IC50), CCR5.

For the compound `Cc1cnc(C(=O)c2ccnc3[nH]ccc23)c(NS(=O)(=O)c2ccc(Cl)c(C(F)(F)F)c2)c1` [Compound 1], the negative-log IC50 (pIC50) – broadly, −log10 of the IC50, conventionally taken in molar units – was less than 5.10.
